By UniProt entry, the sequences of proteins in these tests, tags left out. Residues count along the entry.
UniProt P43220, 24-463 limits assumed: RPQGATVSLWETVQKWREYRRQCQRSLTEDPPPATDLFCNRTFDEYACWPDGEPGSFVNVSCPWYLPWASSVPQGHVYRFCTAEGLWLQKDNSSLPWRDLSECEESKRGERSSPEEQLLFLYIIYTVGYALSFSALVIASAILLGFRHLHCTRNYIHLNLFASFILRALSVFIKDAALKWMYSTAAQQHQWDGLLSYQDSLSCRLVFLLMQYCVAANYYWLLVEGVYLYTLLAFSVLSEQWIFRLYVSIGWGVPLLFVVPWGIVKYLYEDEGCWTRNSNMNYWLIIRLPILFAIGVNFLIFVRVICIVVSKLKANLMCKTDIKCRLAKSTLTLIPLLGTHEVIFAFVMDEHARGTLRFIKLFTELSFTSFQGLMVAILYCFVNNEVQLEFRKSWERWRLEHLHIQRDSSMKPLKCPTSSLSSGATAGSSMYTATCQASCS

According to patent publication US20230071840A1, “HETEROCYCLIC GLP-1 AGONISTS” (Gasherbrum Bio, Inc., priority 2020, published 2023):

Target: GLP-1 Receptor (Homo sapiens, UniProt P43220)
Assay: GLP-1R agonist cAMP stimulation assay (HEK293/GLP1R/CRE-LUC cells, cAMP dynamic 2 kit)
Type: cell-based
Conditions: HEK293/CRE-Luc cell line stably expressing the GLP-1 Receptor; 30 min incubation at 37° C.

In the case of `O=C(O)c1ccc2nc(CN3CCC(c4c[nH]c5ccc(Cc6ccc(Cl)cc6F)nc45)CC3)n(C[C@@H]3CCO3)c2n1`, the “GLP1R cAMP Stimulation DR: pEC50” value is reported as 8.3.
